# Results reported in patent US20200405868A1, “GEL-FORMING POLYPEPTIDES” (priority 2018, published 2020).
# Experiment: Compound gel-forming ability in water (visual inspection, tube tapping assay, tilted tube assay);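 also: peptides mixed with de-ionized water at about 22-25 °C, judged after 20 min by eye plus tube tapping (10 taps, moves counted) and 90° tilt mobility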
# Format: physicochemical
# Parameters: key to Physical property at 11% w/w / gel formation in aqueous solution, 20% / gel formation in aqueous solution, 11%: SS for semisolid gel; LG for liquid gel
# Conditions: for gel formation at 11% w/w: 11% w/w in water; for gel formation at 20% w/w: 20% w/w in water; for gel formation in aqueous solution, 11% / gel formation in aqueous solution, 20%: Table 3; for gel formation in aqueous solution, 11%: 11% w/w; for gel formation in aqueous solution, 20%: 20% w/w
Substance,gel formation at 11% w/w,gel formation at 20% w/w,"gel formation in aqueous solution, 11%","gel formation in aqueous solution, 20%","Physical property at 11% w/w (Table 1, 11% w/w in aqueous solution, room temperature)"
Pal-KVQKLSAPVDPSSPHSY-miniPEG-ELYENKPRRPYIL [SEQ ID NO:207],liquid gel,liquid gel,LG,LG,–
Pal-HSDKPDMAEIEKFDKSKLKKTETQEKNPLPSKETIEQEKQAGES-NH2 [SEQ ID NO:263],liquid gel,liquid gel,LG,LG,LG
